Test results taken from publication PMC7723054.
This is one part of the list.

T1: LIN28A (human?, UniProt Q9H9Z2 1-209)
T1 sequence: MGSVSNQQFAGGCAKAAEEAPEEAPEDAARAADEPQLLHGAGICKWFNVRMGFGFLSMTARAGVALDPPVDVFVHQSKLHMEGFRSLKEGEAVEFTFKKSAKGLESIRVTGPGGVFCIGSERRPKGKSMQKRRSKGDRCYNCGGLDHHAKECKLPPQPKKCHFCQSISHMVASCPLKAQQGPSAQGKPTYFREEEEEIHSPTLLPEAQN

T2: CIRBP (Homo sapiens, UniProt Q14011 1-172)
T2 sequence: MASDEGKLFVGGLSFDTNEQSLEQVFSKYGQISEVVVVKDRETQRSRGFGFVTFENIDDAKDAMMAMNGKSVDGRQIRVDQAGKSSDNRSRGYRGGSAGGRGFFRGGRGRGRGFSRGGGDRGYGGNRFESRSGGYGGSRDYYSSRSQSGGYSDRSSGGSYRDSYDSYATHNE

T3: DHX36 (Homo sapiens, UniProt Q9H2U1 1-1008)
T3 sequence: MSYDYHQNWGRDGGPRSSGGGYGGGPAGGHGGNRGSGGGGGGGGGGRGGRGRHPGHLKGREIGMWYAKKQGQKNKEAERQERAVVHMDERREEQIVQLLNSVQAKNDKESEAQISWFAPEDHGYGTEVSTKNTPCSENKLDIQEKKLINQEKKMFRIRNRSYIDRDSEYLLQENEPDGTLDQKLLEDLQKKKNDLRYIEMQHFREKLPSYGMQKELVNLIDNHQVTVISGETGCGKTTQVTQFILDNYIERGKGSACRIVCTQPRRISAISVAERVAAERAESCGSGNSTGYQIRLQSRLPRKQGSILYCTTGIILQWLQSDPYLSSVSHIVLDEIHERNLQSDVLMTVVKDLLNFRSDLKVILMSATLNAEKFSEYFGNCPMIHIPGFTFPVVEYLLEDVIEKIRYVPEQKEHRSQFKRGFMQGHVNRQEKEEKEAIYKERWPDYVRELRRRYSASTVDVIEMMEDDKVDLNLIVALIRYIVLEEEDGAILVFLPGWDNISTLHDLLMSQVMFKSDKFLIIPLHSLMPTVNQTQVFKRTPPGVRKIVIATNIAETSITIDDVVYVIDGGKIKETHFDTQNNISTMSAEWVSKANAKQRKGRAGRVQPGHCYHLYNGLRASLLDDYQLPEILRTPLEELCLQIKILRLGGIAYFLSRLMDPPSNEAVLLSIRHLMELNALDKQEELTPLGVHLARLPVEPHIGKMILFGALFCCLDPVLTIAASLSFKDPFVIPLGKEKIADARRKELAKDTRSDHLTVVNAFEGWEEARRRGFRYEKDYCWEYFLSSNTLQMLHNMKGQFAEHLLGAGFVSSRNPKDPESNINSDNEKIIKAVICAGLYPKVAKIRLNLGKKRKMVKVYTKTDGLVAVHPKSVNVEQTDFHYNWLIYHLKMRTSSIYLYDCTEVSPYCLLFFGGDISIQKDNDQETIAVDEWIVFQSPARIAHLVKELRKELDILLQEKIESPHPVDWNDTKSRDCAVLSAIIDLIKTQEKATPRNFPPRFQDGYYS

B1: hsa-mir-7843 (structured_RNA)
RNA: GGGAACGGAAUGAAUCCCGGAACUUUCCGGUGUACGAAGUUUCAGCUCCUGAUCUGAUGGAAGUCAUGAGCUGAAGCUUCGUGCAC
B2: hsa-mir-548as (structured_RNA)
RNA: GGGAAACACUAGGAAGGCCCGUCACUGCGGUGUACGAAGUUUCAGCUUUGCCGUUGCUUUUAAUGGUAAAGCUGAAGCUUCGUGCAC
B3: hsa-mir-937 (structured_RNA)
RNA: GGGAGAACGACAGUGCGCACUGGAAAACGGUGUACGAAGUUUCAGCGGCUGGCCCCCUGCUUCGUGCCCAUCCGCUGAAGCUUCGUGCAC
B4: hsa-mir-1255a (structured_RNA)
RNA: GGGAAGCAUGCGUUUCGCGAGUCUAACCGGUGUACGAAGUUUCAGCGAUUUUUUAGAUUCUAAAGAAACGCUGAAGCUUCGUGCAC
B5: hsa-mir-4741 (structured_RNA)
RNA: GGGAUUUCCGAAGGCUCCGAACCCCUUGGGUGUACGAAGUUUCAGCCCCGGCCGGCAGCCCCCGGCCUUAAAGCGCGGGGCUGAAGCUUCGUGCAC
B6: hsa-mir-6716 (structured_RNA)
RNA: GGGAAGGCUAUCGGAGUCCCUUGUGGUCGGUGUACGAAGUUUCAGCAGGGCCUUCUGAGCCCAGGUCCGGCUGAAGCUUCGUGCAC
B7: hsa-mir-3124 (structured_RNA)
RNA: GGGAAACGAAAUCGGCUAGUAUAUGGCUGGUGUACGAAGUUUCAGCAAGUCGAUUUCCAAAAGUGACUUGCUGAAGCUUCGUGCAC
B8: hsa-mir-4472-1 (structured_RNA)
RNA: GGGAAAUGGACUCGGAAGGAAUUGCUCCGGUGUACGAAGUUUCAGCCACUCUCCCUAAUGGGGCUGAAGACAGCUCAGGGGCAGGGUGGCUGAAGCUUCGUGCAC
B9: hsa-mir-485 (structured_RNA)
RNA: GGGACCGAAAGGAGAGCAGUAAUCUGAUGGUGUACGAAGUUUCAGCGAAUUCGAUUCAUCAAAGCGAGUCGCUGAAGCUUCGUGCAC
B10: hsa-mir-133a-2 (structured_RNA)
RNA: GGGAACGCAUGCUGGAAACUUAGCGUCAGGUGUACGAAGUUUCAGCCAAAUCGACUGUCCAAUGGAUUUGGCUGAAGCUUCGUGCAC
B11: hsa-mir-4802 (structured_RNA)
RNA: GGGAAUCGGUUGCAAAGGGGACAUAUUCGGUGUACGAAGUUUCAGCUGUUAGUGUUCAAGUCUACAGCUGAAGCUUCGUGCAC
B12: NEAT1_ParasoR_ID39 (structured_RNA)
RNA: GGGACGUGACUCUACUCCAAAAUAGCCAGGUGUACGAAGUUUCAGCGUGCUCUGCACGCUGAAGCUUCGUGCAC
B13: NEAT1_ParasoR_ID20 (structured_RNA)
RNA: GGGAACAACUCAGACGAGGCGUGAUUUUGGUGUACGAAGUUUCAGCGAUUUGCAUUUCUCUGAUGAGUGAUGCUAUCGCUGAAGCUUCGUGCAC
B14: hsa-mir-6128 (structured_RNA)
RNA: GGGACGCCUACACCUGAGAUUGGUUGCUGGUGUACGAAGUUUCAGCCAUGAUUUGGAAAAAUUACUGGCUGAAGCUUCGUGCAC
B15: hsa-mir-8063 (structured_RNA)
RNA: GGGACCUUACCGUUAUCCACGGAACGUCGGUGUACGAAGUUUCAGCAUGAGAAAUUGGUUUCAAGCUGAAGCUUCGUGCAC
B16: hsa-mir-4662b (structured_RNA)
RNA: GGGAUAUACCUACGCAGGCCCGCUGAAUGGUGUACGAAGUUUCAGCCUUUAGGCAUUCAGAAUAGCUAAAGGCUGAAGCUUCGUGCAC
B17: hsa-mir-522 (structured_RNA)
RNA: GGGAUUAAAAGUGCCUUGCGGACUCCAUGGUGUACGAAGUUUCAGCCUUUCUGUUGUCUGAAAGAAAAGAAAAGCUGAAGCUUCGUGCAC
B18: hsa-mir-548c (structured_RNA)
RNA: GGGAACGACAGCCGAGUCAAUAAGGCAGGGUGUACGAAGUUUCAGCUUUGCCAUUACUUUCAGUAGCAAAGCUGAAGCUUCGUGCAC
B19: hsa-mir-582 (structured_RNA)
RNA: GGGAAUACACCCGGCAAAUGCUGUUCCGGGUGUACGAAGUUUCAGCGUUACUAAUCUAACUAAUUGUAACGCUGAAGCUUCGUGCAC
B20: hsa-mir-4269 (structured_RNA)
RNA: GGGAGUGGUUGCAUGACUCACCAUUCACGGUGUACGAAGUUUCAGCUGGCUUCUGCCUCUUUCUUUGUGGAAGCCAGCUGAAGCUUCGUGCAC
B21: hsa-mir-4287 (structured_RNA)
RNA: GGGCAUUAUCUUGCGAAUGCGGUGAGCCGGUGUACGAAGUUUCAGCUUUUCAGUUCCUGAGAUCGCUGAAGCUUCGUGCAC
B22: hsa-mir-4527 (structured_RNA)
RNA: GGGAACCCCUGCGCCUGUAAAGUCAAACGGUGUACGAAGUUUCAGCCUGUGAAUCCAAGAUCCACAGCUGAAGCUUCGUGCAC
B23: hsa-mir-3146 (structured_RNA)
RNA: GGGAACUAAGGAUGCUAGGCAGGGUCUAGGUGUACGAAGUUUCAGCUAUAACUUGAAGAAUUCAAAUAGUCAUGGCUGAAGCUUCGUGCAC
B24: PARIS_ID47 (structured_RNA)
RNA: GGGAGCAUAGCACCGCCUCAUGGUACAUGGUGUACGAAGUUUCAGCGUGAUGGCUUUGAGGUUAUUUGCAGUUUCCUAGCCAUCUCGCUGAAGCUUCGUGCAC
B25: hsa-mir-3668 (structured_RNA)
RNA: GGGAACGCUGGCCACUGACAGGCAUAAUGGUGUACGAAGUUUCAGCAAAUAGUUUCUAUCAAAAUAGUUUGCUGAAGCUUCGUGCAC
B26: hsa-mir-6079 (structured_RNA)
RNA: GGGAAAGCACGAACAUUACUCGACACCCGGUGUACGAAGUUUCAGCCCAAAGAAACUUUUUUGGGCUGAAGCUUCGUGCAC

Key:
Assay in all cases: FOREST: bead pull-down of RNA structure library v1, barcode microarray; U1A/LIN28A: 20 mM HEPES pH 7.5, 80 mM KCl, 20 mM NaCl, 10% glycerol, 2 mM DTT, 0.1 ug/uL BSA, 4 C; BG4/CIRBP/DHX36: 10 mM Tris-HCl pH 7.5, 100 mM KCl (or LiCl),; high values mean tight binding
LIN28A = biological target: T1, LIN28A
CIRBP = biological target: T2, CIRBP
DHX36 = biological target: T3, DHX36

Row | Binder | binding signal (LIN28A) | binding signal (CIRBP) | binding signal (DHX36)
1 | B1 | -1.04 z-score | -0.393 z-score | -1.21 z-score
2 | B2 | -1.07 z-score | 0.587 z-score | -0.851 z-score
3 | B3 | -1.07 z-score | -0.629 z-score | 0.419 z-score
4 | B4 | -1.08 z-score | -0.51 z-score | -0.959 z-score
5 | B5 | -1.07 z-score | -0.702 z-score | 0.822 z-score
6 | B6 | -1.09 z-score | 0.00644 z-score | -0.277 z-score
7 | B7 | -1.08 z-score | 0.95 z-score | 0.148 z-score
8 | B8 | -1.05 z-score | 0.171 z-score | -0.133 z-score
9 | B9 | -1.09 z-score | 0.558 z-score | -1.01 z-score
10 | B10 | -1.12 z-score | -0.264 z-score | 0.0657 z-score
11 | B11 | -1.07 z-score | 0.0146 z-score | -0.812 z-score
12 | B12 | -1.06 z-score | 0.114 z-score | -0.994 z-score
13 | B13 | -1.08 z-score | -0.24 z-score | -0.854 z-score
14 | B14 | -1.09 z-score | -1.18 z-score | -0.367 z-score
15 | B15 | -1.05 z-score | -0.361 z-score | -0.665 z-score
16 | B16 | -1.11 z-score | -1.77 z-score | -1.88 z-score
17 | B17 | -1.1 z-score | -0.773 z-score | -1.55 z-score
18 | B18 | -1.05 z-score | -1.49 z-score | -0.431 z-score
19 | B19 | -1.09 z-score | 0.441 z-score | -0.0203 z-score
20 | B20 | -1.12 z-score | -2.43 z-score | -0.222 z-score
21 | B21 | -1.09 z-score | 0.261 z-score | -1.15 z-score
22 | B22 | -1.08 z-score | -0.404 z-score | -0.579 z-score
23 | B23 | -1.1 z-score | -0.15 z-score | -0.843 z-score
24 | B24 | -1.04 z-score | -1.12 z-score | -1.53 z-score
25 | B25 | -1.04 z-score | -0.125 z-score | -1.01 z-score
26 | B26 | -1.07 z-score | 0.743 z-score | -0.0401 z-score
